Among the data in ChEMBL document CHEMBL4765256, “Structural features and functional activities of benzimidazoles as NOD2 antagonists” (Eur J Med Chem, 2020) are Ratio IC50 values, retold here.

The species named for the assay is Homo sapiens. The experiment in a line: Selectivity index, ratio of IC50 for antagonist activity at human NOD2 cells expressed in HEK293 cells assessed as reduction in MDP induced NF-kappaB activation preincubated for 1 hr followed by MDPA stimulation and measured after 18 hrs by SEAP reporter gene based spectrophotometric analysis to IC50 for antagonist activity at human NOD1 expressed in HEK293 cells assessed as reduction in C12-iEE-DAP induced NF-kappaB activation preincubated for 1 hr followed by C12-iE-DAP stimulation and measured after 18 hrs by SEAP reporter gene based spectrophotometric analysis. The format is cell-based.

With `Cc1ccc(S(=O)(=O)n2c(N)nc3ccccc32)cc1`, the Ratio IC50 amounted to 71.
